# Experimental data as given in PubChem BioAssay AID2284334 (EPA ToxCast).
# Sequences of proteins named here, by UniProt entry; tags and fusion partners are left off. A change or cut given only in a name is not applied to a line headed by its entry.
# UniProt Q07869: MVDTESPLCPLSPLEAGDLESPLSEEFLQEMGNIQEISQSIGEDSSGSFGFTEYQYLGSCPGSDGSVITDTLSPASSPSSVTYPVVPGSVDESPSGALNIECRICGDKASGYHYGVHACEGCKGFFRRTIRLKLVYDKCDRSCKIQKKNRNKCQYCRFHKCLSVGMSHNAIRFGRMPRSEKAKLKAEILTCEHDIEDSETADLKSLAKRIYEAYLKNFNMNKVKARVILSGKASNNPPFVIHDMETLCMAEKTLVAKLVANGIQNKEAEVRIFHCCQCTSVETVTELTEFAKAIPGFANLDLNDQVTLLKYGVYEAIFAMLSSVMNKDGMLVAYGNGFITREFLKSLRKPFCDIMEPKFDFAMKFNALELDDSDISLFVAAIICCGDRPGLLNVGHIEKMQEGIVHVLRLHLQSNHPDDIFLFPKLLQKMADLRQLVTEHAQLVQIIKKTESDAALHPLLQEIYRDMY
# This is a selection; strong and weak results do not stand in their true shares. Records with an inconclusive call do not appear. Active and inactive are the calls of the source. Rule for the calls: active = hit-call score of the fitted dose curve at least 0.9, where 1 is the maximum; inconclusive = response in the unintended direction; inactive = score below 0.9.
# Biological target: human Peroxisome Proliferator-activated Receptor alpha (PPARa), PPARA (gene 5465) (UniProt Q07869)
# Assay: ATG_hPPARa_EcoTox2: Attagene TRANS-FACTORIAL EcoTox-2 HepG2 Assay for human Peroxisome Proliferator-activated Receptor alpha (PPARa)
# Protocol: ATG_EcoTox2 is a cell-based, multiplexed assay created by modifying the existing Attagene TRANS-FACTORIAL system to include a panel of nuclear receptors from some or all the following species: human (Homo sapiens), african clawed frog (Xenopus laevis), rainbow trout (Oncorhynchus mykiss), japanese medaka (Oryzias latipes), and zebrafish (Danio rerio). The ECOTOX2-FACTORIAL format uses HepG2, a human liver cell line, with measurements taken at 24 hours after chemical dosing in a 24-well plate. ATG_hPPARa_EcoTox2 is one of 29 assay components calculated in the ATG_EcoTox2 assay. It is designed to make measurements of mRNA induction, a form of inducible reporter, as detected with fluorescence intensity signals by Reverse transcription polymerase chain reaction (RT-PCR) and Capillary electrophoresis technology.The assay endpoint ATG_hPPARa_EcoTox2 was analyzed in the positive analysis fitting direction relative to DMSO as the negative control and baseline of activity. Using a type of inducible reporter, measures of mRNA for gain-of-signal activity can be used to understand the reporter gene at the transcription factor-level as they relate to the gene PPARa. Furthermore, this assay endpoint can be referred to as a primary readout, because this assay has produced multiple assay endpoints where this one serves a reporter gene function. […]
compound,measurement,value
Cc1nc(-c2ccc(C(F)(F)F)cc2)sc1C(=O)NCc1ccc(OC(C)(C)C(=O)O)cc1,AC50,active: 0.0823 µM
